According to US20170370933A1, “METHODS AND COMPOSITIONS FOR IMMUNOMODULATION” (Nodality, Inc., priority 2013, published 2017):

Tested on: PD-1 (p-ERK in PD1+ cells)
Assay: PD-1 functional status in PD-1-induced healthy PBMC (p-ERK)
Assay type: cell-based, human
Settings: PD1+ gated cells; anti-CD3, anti-CD28 plus biotinylated recombinant PDL1, avidin cross-linked
Procedure: In brief, PBMCs were isolated from healthy blood donors according to approved protocol. PBMCs were first cultured in RPMI 1640 plus 10% FBS with anti CD3 and anti CD28 for 48 hours to increase levels of surface expression of PD-1. Subsequently, cells were washed and rested overnight in RPMI 1640 plus 10% FBS. For stimulation experiments, PBMC (1.5×10e5 cells) were incubated with anti-CD3, anti-CD28 and anti IgG Biotinylated Abs or anti-CD3, anti-CD28 biotinylated Abs plus biotinylated recombinant PDL1. Antibodies were then cross-linked with Avidin. At a certain time point, the reaction was stopped and the cell fixed with PFA 2.4%. Cells were them processed for SCNP analysis for selected read-outs. […] All cells were gated so that PD1+ cells were used.

With “recombinant PDL1: biotinylated recombinant PDL1, IMR modulator” the “p-ERK in cells activated with TCR activator in the presence of IMR modulator” value was “low levels of p-ERK”.
